Test results from patent publication US7393448B2, “Method of binding a compound to a sensor surface” (Applied NanoSystems B.V., priority 2002, dated 2008).

## glucose oxidase
GCE, phosphate buffer pH 7 (25 mM), glucose added
  enzyme activity upon immobilization on the hydrophobin layer: remained active
Stored in sealed container, not in liquid, at 4° C., frequently tested
  period over which the electrode maintained its activity: ≥ 67 days
